The target in assay [1] is 5-hydroxytryptamine receptor 1A (Rattus norvegicus, UniProt P19327). Briefly: Tested for binding affinity against 5-hydroxytryptamine 1A receptor from rat frontal cortical regions using [3H]8-OH-DPAT as radioligand.
Assay [2] deals with 5-hydroxytryptamine receptor 2C (Rattus norvegicus, UniProt P08909). The assay is described as follows: Tested for binding affinity against 5-hydroxytryptamine 1C receptor from rat frontal cortical regions using [3H]mesulergine as radioligand.
Assay [3] addresses Serotonin 2 (5-HT2) receptor (Rattus norvegicus, UniProt P30994+P08909+P14842). The assay is described as follows: Tested for binding affinity against 5-hydroxytryptamine 2 receptor from rat frontal cortical regions using [3H]ketanserin as radioligand.

Protein sequences, listed by entry. Tags and fused reporters are not part of them. Residues count along the entry.
UniProt P19327, whole entry: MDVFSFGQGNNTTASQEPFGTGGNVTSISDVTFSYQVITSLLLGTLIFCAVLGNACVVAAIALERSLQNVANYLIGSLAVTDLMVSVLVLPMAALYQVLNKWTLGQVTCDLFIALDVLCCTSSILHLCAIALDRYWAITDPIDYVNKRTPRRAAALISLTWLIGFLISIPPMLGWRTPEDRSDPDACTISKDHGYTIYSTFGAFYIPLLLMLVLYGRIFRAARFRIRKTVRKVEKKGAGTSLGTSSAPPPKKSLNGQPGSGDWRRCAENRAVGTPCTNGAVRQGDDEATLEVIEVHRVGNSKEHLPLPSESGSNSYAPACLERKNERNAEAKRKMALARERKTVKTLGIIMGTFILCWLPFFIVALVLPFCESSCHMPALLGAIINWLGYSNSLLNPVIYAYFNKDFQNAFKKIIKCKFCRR
UniProt P08909, 33-460 limits assumed: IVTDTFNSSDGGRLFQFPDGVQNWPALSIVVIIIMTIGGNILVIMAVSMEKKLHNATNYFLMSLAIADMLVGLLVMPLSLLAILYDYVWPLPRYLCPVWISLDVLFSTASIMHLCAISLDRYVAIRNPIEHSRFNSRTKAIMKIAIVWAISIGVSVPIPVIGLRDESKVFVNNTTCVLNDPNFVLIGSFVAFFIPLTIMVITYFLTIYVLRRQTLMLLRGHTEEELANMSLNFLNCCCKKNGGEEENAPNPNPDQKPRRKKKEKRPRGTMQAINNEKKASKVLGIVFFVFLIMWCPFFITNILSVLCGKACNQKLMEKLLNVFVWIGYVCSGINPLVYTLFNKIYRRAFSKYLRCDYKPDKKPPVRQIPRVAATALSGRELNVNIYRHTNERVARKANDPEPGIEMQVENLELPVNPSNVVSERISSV
UniProt P30994, whole entry: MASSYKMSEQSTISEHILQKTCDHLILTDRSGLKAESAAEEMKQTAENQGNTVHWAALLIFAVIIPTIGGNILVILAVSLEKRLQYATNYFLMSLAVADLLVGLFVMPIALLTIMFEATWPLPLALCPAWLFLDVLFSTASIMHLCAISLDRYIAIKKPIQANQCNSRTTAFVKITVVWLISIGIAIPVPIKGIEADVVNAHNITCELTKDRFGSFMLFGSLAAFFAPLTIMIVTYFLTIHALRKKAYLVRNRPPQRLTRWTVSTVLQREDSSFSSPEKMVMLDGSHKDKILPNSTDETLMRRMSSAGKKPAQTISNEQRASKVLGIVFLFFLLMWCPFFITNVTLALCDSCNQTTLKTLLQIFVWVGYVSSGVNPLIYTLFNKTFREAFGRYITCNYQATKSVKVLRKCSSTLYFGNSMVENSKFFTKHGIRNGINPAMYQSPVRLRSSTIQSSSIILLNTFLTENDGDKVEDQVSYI
UniProt P14842, whole entry: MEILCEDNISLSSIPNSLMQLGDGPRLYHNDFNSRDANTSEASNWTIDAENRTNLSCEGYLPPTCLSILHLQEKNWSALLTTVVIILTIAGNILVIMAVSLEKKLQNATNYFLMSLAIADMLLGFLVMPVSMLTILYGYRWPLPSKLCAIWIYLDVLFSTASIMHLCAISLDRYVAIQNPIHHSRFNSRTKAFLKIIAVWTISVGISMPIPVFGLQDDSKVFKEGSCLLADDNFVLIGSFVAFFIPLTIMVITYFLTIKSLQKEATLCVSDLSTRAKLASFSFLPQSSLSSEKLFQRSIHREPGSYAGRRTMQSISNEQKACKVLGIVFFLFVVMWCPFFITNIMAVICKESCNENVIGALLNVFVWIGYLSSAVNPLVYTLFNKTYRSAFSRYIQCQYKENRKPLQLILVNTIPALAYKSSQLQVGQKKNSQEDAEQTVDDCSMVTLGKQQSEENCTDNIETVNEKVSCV

pKi: −log10 of the molar value. Some compounds may have been tested in ways that are not shown here.

For orientation: pKi means the negative decadic logarithm of the Ki, by convention in mol/L. A lower pKi goes with a high Ki. As to `O=C(CCCN1CCC(Nc2ccccc2)CC1)c1ccc(F)cc1`, the pKi in assay [1] is 6.60; in assay [2], 5.64; in assay [3], 7.47.

The record behind these values is ChEMBL document CHEMBL1126779, “Antagonism of 1-(2,5-dimethoxy-4-methylphenyl)-2-aminopropane stimulus with a newly identified 5-HT2- versus 5-HT1C-selective antagonist” (J Med Chem, 1993).
